Here are results for one compound from ChEMBL document CHEMBL1128310, “Antitumor imidazotetrazines. 32. Synthesis of novel imidazotetrazinones and related bicyclic heterocycles to probe the mode of action of the antitumor drug temozolomide” (J Med Chem, 1995).

One may read the IC50 as the concentration that inhibits the measured activity by half. Low readings indicate greater potency, high ones weaker potency.

The experiment relates to GM892A cell line. In words: In vitro cytotoxicity against human lymphoblastoid cell (GM892 A).

`CN(N=O)C(=N)N[N+](=O)[O-]` returned an IC50 of 200 nM.
